We go through eight compounds from article PMC11982232, “Factors affecting irreversible inhibition of EGFR and influence of chirality on covalent binding” (Communications Chemistry, 2025).

Protein sequences, listed by entry. Tags and fused reporters are not part of them. Lines headed by an entry give the natural chain unless they say otherwise; changes in a name come on top. Residues count along the entry.
UniProt P00533, 25-1210 limits assumed: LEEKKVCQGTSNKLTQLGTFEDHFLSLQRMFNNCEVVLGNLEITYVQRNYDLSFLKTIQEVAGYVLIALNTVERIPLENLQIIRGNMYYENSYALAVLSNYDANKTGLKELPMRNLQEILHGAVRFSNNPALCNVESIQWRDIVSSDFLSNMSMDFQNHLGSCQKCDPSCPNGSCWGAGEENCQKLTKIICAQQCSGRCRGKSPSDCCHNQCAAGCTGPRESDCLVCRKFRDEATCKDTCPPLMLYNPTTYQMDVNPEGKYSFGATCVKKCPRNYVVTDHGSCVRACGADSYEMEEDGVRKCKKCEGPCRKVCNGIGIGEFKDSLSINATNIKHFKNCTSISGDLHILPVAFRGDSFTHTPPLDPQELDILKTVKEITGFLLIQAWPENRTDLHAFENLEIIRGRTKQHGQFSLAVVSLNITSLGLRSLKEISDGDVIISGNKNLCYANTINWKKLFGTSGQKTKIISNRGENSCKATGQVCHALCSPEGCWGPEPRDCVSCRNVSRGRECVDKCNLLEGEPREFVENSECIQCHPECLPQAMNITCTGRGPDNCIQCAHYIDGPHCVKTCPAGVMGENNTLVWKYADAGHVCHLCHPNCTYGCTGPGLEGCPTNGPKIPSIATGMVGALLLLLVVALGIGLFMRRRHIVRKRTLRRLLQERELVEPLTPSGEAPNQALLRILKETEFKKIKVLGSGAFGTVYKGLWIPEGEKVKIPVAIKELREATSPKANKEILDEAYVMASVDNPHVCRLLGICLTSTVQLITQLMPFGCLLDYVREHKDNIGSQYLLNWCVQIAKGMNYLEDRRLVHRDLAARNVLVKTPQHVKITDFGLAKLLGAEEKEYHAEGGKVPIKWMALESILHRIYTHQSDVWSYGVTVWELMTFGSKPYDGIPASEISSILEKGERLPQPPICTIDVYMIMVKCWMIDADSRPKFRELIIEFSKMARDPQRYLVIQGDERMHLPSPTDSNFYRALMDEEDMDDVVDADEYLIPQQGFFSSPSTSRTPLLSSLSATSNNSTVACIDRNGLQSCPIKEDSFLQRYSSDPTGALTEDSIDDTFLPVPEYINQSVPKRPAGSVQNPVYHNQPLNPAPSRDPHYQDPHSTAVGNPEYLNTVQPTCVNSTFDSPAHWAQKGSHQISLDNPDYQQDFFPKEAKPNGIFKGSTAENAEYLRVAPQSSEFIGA
UniProt P00533, 25-1210 T790M/L858R limits assumed: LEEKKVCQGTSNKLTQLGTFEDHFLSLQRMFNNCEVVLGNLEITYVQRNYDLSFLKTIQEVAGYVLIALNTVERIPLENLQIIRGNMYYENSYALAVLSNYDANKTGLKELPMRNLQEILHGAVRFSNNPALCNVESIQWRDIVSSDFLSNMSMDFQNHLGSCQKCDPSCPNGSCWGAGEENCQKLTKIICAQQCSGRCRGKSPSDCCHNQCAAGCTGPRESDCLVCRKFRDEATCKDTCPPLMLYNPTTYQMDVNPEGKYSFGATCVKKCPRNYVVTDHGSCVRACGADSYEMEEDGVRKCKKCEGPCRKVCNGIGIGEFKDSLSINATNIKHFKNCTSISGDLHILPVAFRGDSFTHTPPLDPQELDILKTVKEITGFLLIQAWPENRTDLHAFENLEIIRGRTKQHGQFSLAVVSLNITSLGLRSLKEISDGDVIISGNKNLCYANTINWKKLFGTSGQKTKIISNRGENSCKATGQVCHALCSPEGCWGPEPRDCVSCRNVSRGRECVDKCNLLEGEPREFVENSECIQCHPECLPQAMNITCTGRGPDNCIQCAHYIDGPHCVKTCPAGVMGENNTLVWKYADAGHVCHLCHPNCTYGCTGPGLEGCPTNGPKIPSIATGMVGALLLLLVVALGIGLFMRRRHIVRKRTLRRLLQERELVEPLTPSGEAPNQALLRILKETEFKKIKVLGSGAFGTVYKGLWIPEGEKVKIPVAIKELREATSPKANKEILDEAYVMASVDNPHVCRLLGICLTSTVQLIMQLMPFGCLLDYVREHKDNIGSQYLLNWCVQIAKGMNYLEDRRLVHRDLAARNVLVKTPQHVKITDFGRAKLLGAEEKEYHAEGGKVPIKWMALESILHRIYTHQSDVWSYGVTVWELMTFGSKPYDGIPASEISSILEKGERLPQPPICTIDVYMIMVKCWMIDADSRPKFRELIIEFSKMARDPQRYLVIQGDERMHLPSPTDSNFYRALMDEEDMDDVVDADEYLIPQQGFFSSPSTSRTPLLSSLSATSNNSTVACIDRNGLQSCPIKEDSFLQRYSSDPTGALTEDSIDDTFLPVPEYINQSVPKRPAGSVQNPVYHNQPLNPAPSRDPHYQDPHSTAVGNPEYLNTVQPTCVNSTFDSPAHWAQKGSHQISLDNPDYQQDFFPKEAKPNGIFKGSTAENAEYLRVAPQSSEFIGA

One data set addresses EGFR WT (Homo sapiens, UniProt P00533). Nature of the data set: TR-FRET probe displacement assay, EGFR WT. It counts as binding. Conditions: 30 min incubation, mean of at least 3 replicates.
The target in the next data set is EGFR DM (L858R/T790M) (Homo sapiens, UniProt P00533, L858R/T790M). Nature of the data set: TR-FRET probe displacement assay, EGFR DM. It counts as binding. The following applies: 30 min incubation, mean of at least 3 replicates.
The nature of data set [1]: GSH reactivity (glutathione half-life). The following applies: 4.6 mM GSH, 50 µM compound, pH 7.4 phosphate buffer, 37 °C.

As to `C#CC(=O)N1CCC(Oc2cc3c(Nc4cc(Cl)ccc4F)ncnc3cc2OC)CC1`, the “WT pIC50” value on EGFR WT worked out at 8.1 ± 0.09. In addition, the “DM pIC50” value at EGFR DM (L858R/T790M) is listed as 7.9 ± 0.09.

For the compound `C#CC(=O)N1CCC(Oc2cc3c(Nc4cccc(Cl)c4F)ncnc3cc2OC)CC1`, the “WT pIC50” value on EGFR WT worked out at 8.2 ± 0.04.

Take `C#CC(=O)N1CCC(Oc2cc3c(Nc4ccc(F)c(Cl)c4)ncnc3cc2OC)CC1`: on EGFR WT, the “WT pIC50” value is 8.3 ± 0.1.

Take `C#CC(=O)N1CC[C@@H](Oc2cc3c(Nc4ccc(F)c(Cl)c4)ncnc3cc2OC)C1`: the “WT pIC50” value on EGFR WT was determined as 7.8 ± 0.09. Also, the “DM pIC50” value at EGFR DM (L858R/T790M) was 8.2 ± 0.1. Further, in data set [1], the “GSH t1/2” value is recorded as 50 m.

Turning to `C=CC(=O)N1CCC(Oc2cc3c(Nc4cc(Cl)ccc4F)ncnc3cc2OC)CC1`, at EGFR WT, the “WT pIC50” value is 7.8 ± 0.2. In addition, the “DM pIC50” value on EGFR DM (L858R/T790M) is reported as 7.5 ± 0.1.

With `C#CC(=O)N1CC[C@H](Oc2cc3c(Nc4ccc(F)c(Cl)c4)ncnc3cc2OC)C1`, at EGFR WT, the “WT pIC50” value is recorded as 7.6 ± 0.05. In addition, the “DM pIC50” value on EGFR DM (L858R/T790M) came to 7.8 ± 0.5. Further, the “GSH t1/2” value in data set [1] worked out at 45 m.

In the case of `C=CC(=O)N1CCC(Oc2ccc3ncnc(Nc4cccc(Cl)c4F)c3c2)CC1`, the “WT pIC50” value on EGFR WT was found to be 7.7 ± 0.00.

Take `C#CC(=O)N1CCC(Oc2cc3c(Nc4ccc(Cl)c(Cl)c4F)ncnc3cc2OC)CC1`: the “WT pIC50” value on EGFR WT was found to be 8.0 ± 0.05. Besides, on EGFR DM (L858R/T790M), the “DM pIC50” value worked out at 7.8 ± 0.7.
